# Experimental data published in patent US11452735B2, “Pharmaceutical combinations of organo-arsenoxide compounds and mTOR inhibitors” (NewSouth Innovations Pty Limited, priority 2015, dated 2022).
# Columns and labels:
# [1] = test system: human pancreatic, ovarian and brain tumour cells; test: Synergy on proliferation across the tumour cell panel (MTT, CompuSyn); type: cell-based; conditions: combination with PENAO, tumour cells in culture
# Procedure: The terms “synergy”, “synergistic”, “synergistic effect” and “synergistic combination” as used herein refers to a mixture of two or more discrete agents which, when combined, display a degree of anticancer activity, such as anti-proliferative activity or cytotoxicity etc., which is greater than the expected additive effect of said agents. […] CompuSyn software was utilised to calculate combination index (CI) values for drug combinations.
# MiaPaca2, AsPC1, Panc1, Capan1, SKOV3 and U251MG cells were seeded at a density of 4×10^3 cells/well, and G89 cells at 1×10^4 cells/well, in 96-well plates. Cells were allowed to adhere for 24 h at 37° C. in a 5% CO2, 95% air atmosphere and then treated with compounds (see Table 1 and FIG. 1 for details) for 72 h. Viable cells were determined using the vital dye, MTT, according to the manufacturer's instructions.
# Tumour cell lines were seeded in 96-well plates, allowed to adhere for 24 then treated with the compounds for 72 h, either as single agent or in a fixed ratio combination. Viable cells were determined using the vital dye, MTT. […] CI values are mean±SD from at least two experiments.
# MiaPaca2 cells = test: MTT cell proliferation, 72 h (single agent and fixed ratio combination); type: cell-based, human; conditions: combination with PENAO, fixed ratio, MiaPaca2, 72 h, CompuSyn
# Procedure: (§1) Except otherwise mentioned, all the reagents and chemicals were from Sigma (St Louis, Mo.). […] Except otherwise mentioned, cells were from ATCC (Bethesda, Va.) and all culture media, serum, antibiotics and supplements were from Invitrogen (Mulgrave, VIC, Australia). All cultures contained 20 units/mL penicillin and 20 units/mL streptomycin. […] Panc1 (human pancreatic adenocarcinoma, Kras mutated G12D) cells were cultured in DMEM containing 2 mM glutamine. Capan1 (human pancreatic adenocarcinoma, derived from metastatic site, Kras mutated G12V) cells were cultured in IMDM containing 20% v/v foetal bovine serum and 2 mM glutamine. […]
# (§2) MiaPaca2, AsPC1, Panc1, Capan1, SKOV3 and U251MG cells were seeded at a density of 4×10^3 cells/well, and G89 cells at 1×10^4 cells/well, in 96-well plates. […] Viable cells were determined using the vital dye, MTT, according to the manufacturer's instructions.
# (§3) Tumour cell lines were seeded in 96-well plates, allowed to adhere for 24 then treated with the compounds for 72 h. Viable cells were determined using the vital dye, MTT. […]
# (§4) Tumour cell lines were seeded in 96-well plates, allowed to adhere for 24 then treated with the compounds for 72 h, either as single agent or in a fixed ratio combination. Viable cells were determined using the vital dye, MTT. […]
# Panc1 cells = test: as above; type: cell-based, human; conditions: combination with PENAO, fixed ratio, Panc1, 72 h, CompuSyn
# Procedure: as §1, §2, §3, §4
structure (smiles),measurement,setting,value
CO[C@H]1C[C@@H]2CC[C@@H](C)[C@@](O)(O2)C(=O)C(=O)N2CCCC[C@H]2C(=O)O[C@H]([C@H](C)C[C@@H]2CC[C@@H](OP(C)(C)=O)[C@H](OC)C2)CC(=O)[C@H](C)/C=C(\C)[C@@H](O)[C@@H](OC)C(=O)[C@H](C)C[C@H](C)/C=C/C=C/C=C/1C [Deforolimus],Synergistic effect with PENAO on proliferation,[1],act synergistically
same,CI at ED50 (combination index),MiaPaca2 cells,0.80 ± 0.10
same,CI at ED50 (combination index),Panc1 cells,0.73 ± 0.01
